The test has as its target Serotonin 3 (5-HT3) receptor (UniProt A5X5Y0+O95264+P46098+Q70Z44+Q8WXA8).

Chains of the proteins cited; added tags and fusions are not shown. Residues count along the entry.
UniProt A5X5Y0, 26-456 limits assumed: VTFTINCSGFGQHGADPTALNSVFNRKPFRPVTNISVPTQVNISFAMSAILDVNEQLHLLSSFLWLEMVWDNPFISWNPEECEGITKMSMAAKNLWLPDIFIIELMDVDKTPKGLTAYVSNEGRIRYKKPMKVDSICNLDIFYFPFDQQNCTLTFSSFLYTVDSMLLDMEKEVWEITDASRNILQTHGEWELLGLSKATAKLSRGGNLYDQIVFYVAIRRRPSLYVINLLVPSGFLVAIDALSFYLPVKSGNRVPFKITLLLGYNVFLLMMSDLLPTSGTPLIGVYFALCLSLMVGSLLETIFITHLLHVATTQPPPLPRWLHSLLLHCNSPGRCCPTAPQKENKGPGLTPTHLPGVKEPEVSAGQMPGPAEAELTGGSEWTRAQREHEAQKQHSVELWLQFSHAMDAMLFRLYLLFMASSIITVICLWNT
UniProt O95264, 22-441 limits assumed: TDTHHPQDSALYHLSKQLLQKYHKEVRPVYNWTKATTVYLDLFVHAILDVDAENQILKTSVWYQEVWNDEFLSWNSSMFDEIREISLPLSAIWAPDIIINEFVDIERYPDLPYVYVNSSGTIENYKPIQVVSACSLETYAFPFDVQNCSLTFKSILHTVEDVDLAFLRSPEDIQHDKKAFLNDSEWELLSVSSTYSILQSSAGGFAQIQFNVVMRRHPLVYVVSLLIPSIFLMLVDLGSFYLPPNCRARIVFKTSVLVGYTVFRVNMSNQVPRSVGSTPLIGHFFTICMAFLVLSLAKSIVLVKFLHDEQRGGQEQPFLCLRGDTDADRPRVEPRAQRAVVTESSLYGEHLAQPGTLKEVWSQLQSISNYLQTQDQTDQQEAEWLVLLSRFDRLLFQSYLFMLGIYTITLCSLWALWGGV
UniProt P46098, 24-478 limits assumed: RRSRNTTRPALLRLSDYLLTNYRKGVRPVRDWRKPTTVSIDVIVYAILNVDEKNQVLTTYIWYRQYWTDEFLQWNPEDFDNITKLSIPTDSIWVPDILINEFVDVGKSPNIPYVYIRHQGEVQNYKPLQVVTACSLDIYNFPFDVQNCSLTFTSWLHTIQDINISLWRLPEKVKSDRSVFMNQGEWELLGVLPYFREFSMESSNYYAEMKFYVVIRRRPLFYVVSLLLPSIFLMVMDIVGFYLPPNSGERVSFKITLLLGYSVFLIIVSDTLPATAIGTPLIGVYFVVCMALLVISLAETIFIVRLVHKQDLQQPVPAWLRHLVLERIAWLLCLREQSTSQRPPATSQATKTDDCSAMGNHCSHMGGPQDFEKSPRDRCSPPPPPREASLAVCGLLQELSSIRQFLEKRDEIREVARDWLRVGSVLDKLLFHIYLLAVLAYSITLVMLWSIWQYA
UniProt Q70Z44, 25-454 limits assumed: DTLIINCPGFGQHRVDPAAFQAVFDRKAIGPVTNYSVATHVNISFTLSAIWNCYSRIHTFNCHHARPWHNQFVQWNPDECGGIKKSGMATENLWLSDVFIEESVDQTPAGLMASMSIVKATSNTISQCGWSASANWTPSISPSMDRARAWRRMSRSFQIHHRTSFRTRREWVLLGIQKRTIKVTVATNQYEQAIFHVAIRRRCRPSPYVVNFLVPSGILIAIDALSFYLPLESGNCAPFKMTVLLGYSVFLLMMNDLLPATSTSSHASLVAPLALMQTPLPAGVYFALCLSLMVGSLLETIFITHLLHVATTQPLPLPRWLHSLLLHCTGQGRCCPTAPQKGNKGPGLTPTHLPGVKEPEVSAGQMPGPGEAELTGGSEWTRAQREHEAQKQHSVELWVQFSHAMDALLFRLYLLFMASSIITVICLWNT
UniProt Q8WXA8, 28-447 limits assumed: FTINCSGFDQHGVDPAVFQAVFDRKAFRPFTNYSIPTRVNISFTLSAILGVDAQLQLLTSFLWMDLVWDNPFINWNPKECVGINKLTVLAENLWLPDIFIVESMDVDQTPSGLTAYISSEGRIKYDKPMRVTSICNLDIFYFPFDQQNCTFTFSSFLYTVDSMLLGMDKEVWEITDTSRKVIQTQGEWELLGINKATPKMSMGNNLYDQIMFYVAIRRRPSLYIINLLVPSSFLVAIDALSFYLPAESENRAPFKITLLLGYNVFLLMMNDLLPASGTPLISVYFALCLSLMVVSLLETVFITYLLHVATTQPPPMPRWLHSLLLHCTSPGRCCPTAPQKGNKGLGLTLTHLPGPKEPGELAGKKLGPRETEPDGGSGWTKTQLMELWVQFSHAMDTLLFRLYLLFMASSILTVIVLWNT

As a reminder, the Ki is a dissociation constant, usually derived from enzyme kinetics or from competition with a known ligand. A lower Ki goes with tighter binding. In the case of `O=C(OC1CN2CCC1CC2)c1c[nH]c2ccccc12` (stereo unspecified), the Ki stood at 1.1 nM. In other words, the single-digit nanomolar range.
